Data as given in publication PMC10474047.

Assays:
[1] = target: NTRK3-202-3XFLAG (inactive short variant of NTRK3 without the tyrosine kinase domain) (mouse); test: co-IP; WT αT3-1 cells co-transfected with c-Src-eGFP and NTRK3-3XFLAG isoforms for 24 h; modified RIPA lysis buffer (150 mM NaCl, 50 mM Tris pH 8, 1% Triton X-100, phosphatase and protease inhibitors); extracts incubated overnight with anti-FLAG M2 antibody, then Dynabeads Protein G 4 h; blot for pY^416 c-Src (legend: total c-Src too); bands quantified with ImageJ
[2] = target: NTRK3-205-3XFLAG (NTRK3 isoform with an additional exon in the tyrosine kinase domain) (mouse); test: as above

fold reduction of co-precipitated pY416 c-Src against NTRK3-201 [1]: 2.5 fold
fold reduction of co-precipitated pY416 c-Src against NTRK3-201 [2]: 2.5 fold
Substance: c-Src-eGFP (WT c-Src fused in frame with GFP) (from UniProt P05480-2 1-535) (enzyme)
